Experimental findings from article PMC3103436 (Journal of Translational Medicine, 2011) are described below.

The assay relates to HLMs. Description: Chemical inhibition assays of BBR metabolism in HLMs. Type of assay: in vitro ADME, human. To be noted: BBR 15 μM, inhibitor 5 μM, 30 min, control without inhibitor = 100%. As to the method:
Incubation conditions were optimized to ensure the linearity with respect to the microsomal protein concentration and incubation time. […] After incubation of the mixture in a 37°C water bath with opening to the air, the reaction lasted for 30 min and was terminated by addition of 800 μl cold acetonitrile. Internal standard (40 μg/ml ampicillin, dissolved in acetonitrile) was added into the mixture, and then centrifuged at 16000 g for 15 min at 4°C. The supernatant was aspirated, followed by dilution in 0.2% acetic acid. 10 μl of the aliquot was injected into the LC-MS/MS system for analysis. Control samples were incubated without NADPH. The incubation was performed in duplicates.
α-Naphthoflavone (typical inhibitor of CYP1A2; final concentration used, 5 μM), quinidine (typical inhibitor of CYP2D6; final concentration, 5 μM) sulfaphenazole (typical inhibitor of CYP2C9; final concentration, 5 μM), troglitazone (typical inhibitor of CYP2C19; final concentration, 5 μM) and ketoconazole (typical inhibitor of CYP3A; final concentration, 5 μM) were added, respectively, to the incubation reaction containing 0.5 mg/ml HLMs, 100 mM phosphate buffer (pH 7.4) and NADPH-regenerating system at a final volume of 200 μl. […] The mixture was incubated at 37°C for 30 min and then terminated with cold acetonitrile. […]
The flow-rate was 0.2 ml/min. […] Data were analyzed by Xcalibur 1.2 software.

With `C=C[C@H]1C[N@@]2CC[C@H]1C[C@@H]2[C@@H](O)c1ccnc2ccc(OC)cc12` [QND, quinidine], the “Decrease of M2 formation” value is “about 40%”.
